According to US11958855B2, “Aurora kinase inhibitors for inhibiting mitotic progression” (Millennium Pharmaceuticals, Inc., priority 2006, dated 2024):

Target: T1, Aurora A (Homo sapiens, UniProt O14965)
T1 construct: Human tumor cells (HCT-116, obtained from ATCC) were grown on 96-well dishes; host or cells: HCT-116
T1 sequence (O14965 1-403): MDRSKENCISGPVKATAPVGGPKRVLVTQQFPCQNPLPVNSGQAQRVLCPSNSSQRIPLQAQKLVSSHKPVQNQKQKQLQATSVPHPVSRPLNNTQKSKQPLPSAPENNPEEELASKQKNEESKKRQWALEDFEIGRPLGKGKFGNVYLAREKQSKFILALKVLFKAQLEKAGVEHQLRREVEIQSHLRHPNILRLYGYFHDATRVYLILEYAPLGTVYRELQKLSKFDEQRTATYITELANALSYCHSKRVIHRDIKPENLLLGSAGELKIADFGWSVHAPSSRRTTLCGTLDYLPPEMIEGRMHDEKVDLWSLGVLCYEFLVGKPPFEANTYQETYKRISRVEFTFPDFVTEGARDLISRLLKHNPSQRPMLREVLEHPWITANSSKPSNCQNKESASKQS
Assay: pT288 Aurora A autophosphorylation assay
Assay type: cell-based
Details: HCT-116 cells, 60 minutes treatment

Work on O=C(O)c1ccc(Nc2ncc3c(n2)-c2ccc(Cl)cc2C(c2ccccc2F)=NC3)cc1 [i] yielded an IC50 of 180 nM.
